Laboratory results published in publication PMC5524369.

Assays:
complement 3b (human) [1] = target: complement 3b (human) (UniProt P01024)
complement 3b (human) [2] = target: complement 3b (human) (UniProt P01024); remark: listed apart in the source
complement 3b (human) [3] = target: complement 3b (human) (UniProt P01024); remark: listed apart in the source

Tamm-Horsfall protein (from UniProt P07911 25-614) (natural protein)
cofactor in CFI-mediated C3b degradation, 5 μg THP from 5 females, 37°C for 4 h: band intensity ratio C3bα41/C3b ß-chain (complement 3b (human) [1]): 0.397
cofactor in CFI-mediated C3b degradation, 5 μg THP from 5 females, 37°C for 4 h: band intensity ratio C3bα62/C3b ß-chain (complement 3b (human) [1]): 0.565
cofactor in CFI-mediated C3b degradation, 5 μg THP from 5 males, 37°C for 4 h: band intensity ratio C3bα41/C3b ß-chain (complement 3b (human) [1]): 0.443
cofactor in CFI-mediated C3b degradation, 5 μg THP from 5 males, 37°C for 4 h: band intensity ratio C3bα62/C3b ß-chain (complement 3b (human) [1]): 0.535
cofactor in CFI-mediated C3b degradation, "high" CFH THP sample (5.3 pg CFH/5 μg THP), 37°C for 4 h: band intensity ratio C3bα62/C3b ß-chain (complement 3b (human) [2]): 0.36
cofactor in CFI-mediated C3b degradation, "low" CFH THP sample (1.1 pg CFH/5 μg THP), 37°C for 4 h: band intensity ratio C3bα62/C3b ß-chain (complement 3b (human) [2]): 0.37
cofactor in CFI-mediated C3b degradation: amount of CFH whose cofactor activity equals that of 5 μg THP (extrapolated from the CFH dose curve) (complement 3b (human) [3]): 0.37 ng CFH
